Source: patent US4782016A (Eastman Kodak Company, priority 1985, dated 1988)
Where two headings read alike, the source gives them in different places.

By UniProt entry, the sequences of proteins in these tests, tags left out. Residues count along the entry.
UniProt P09487, 18-502 limits assumed: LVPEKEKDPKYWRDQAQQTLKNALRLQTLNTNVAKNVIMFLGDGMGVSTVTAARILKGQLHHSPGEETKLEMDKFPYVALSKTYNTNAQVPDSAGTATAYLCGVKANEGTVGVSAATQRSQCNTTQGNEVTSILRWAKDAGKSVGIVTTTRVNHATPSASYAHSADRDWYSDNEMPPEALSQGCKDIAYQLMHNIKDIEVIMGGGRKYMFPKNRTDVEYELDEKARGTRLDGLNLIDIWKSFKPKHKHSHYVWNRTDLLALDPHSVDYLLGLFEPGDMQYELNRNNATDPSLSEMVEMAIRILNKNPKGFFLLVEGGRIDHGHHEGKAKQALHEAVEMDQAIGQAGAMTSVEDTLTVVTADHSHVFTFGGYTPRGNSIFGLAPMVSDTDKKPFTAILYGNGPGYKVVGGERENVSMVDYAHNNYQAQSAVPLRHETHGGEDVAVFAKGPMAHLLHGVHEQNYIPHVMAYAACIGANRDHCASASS
UniProt P09487, 18-499 limits assumed: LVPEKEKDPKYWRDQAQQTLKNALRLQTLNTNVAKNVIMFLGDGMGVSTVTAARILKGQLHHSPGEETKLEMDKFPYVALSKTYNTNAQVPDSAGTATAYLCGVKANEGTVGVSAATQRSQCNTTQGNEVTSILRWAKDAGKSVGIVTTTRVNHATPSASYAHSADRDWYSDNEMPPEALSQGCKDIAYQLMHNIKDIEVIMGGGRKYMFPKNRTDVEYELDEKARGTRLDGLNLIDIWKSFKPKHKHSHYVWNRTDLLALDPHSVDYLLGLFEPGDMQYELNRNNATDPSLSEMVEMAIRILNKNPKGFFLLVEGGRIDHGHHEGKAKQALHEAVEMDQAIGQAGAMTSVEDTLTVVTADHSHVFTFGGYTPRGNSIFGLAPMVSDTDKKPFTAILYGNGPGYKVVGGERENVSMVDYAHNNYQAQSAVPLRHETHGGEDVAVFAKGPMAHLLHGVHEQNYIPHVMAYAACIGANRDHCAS

Tests used:
[1] = biological target: T1, beef liver alkaline phosphatase (Bos taurus, UniProt P09487); settings: pH 8, 37° C.
[2] = biological target: T1, beef liver alkaline phosphatase; settings: human serum test samples 1-10 (one per line of Table II); pH 8, 37° C.
[3] = biological target: T1, beef liver alkaline phosphatase; settings: theophylline 20 μg/ml, human ALP 0 I.U./l
[4] = tested on: beef liver alkaline phosphatase; settings: theophylline 20 μg/ml
[5] = patients; asthma and pulmonary diseases; cited from earlier work
[6] = theophylline 0.28 mg/dl calibrator
[7] = theophylline 0.56 mg/dl calibrator
[8] = theophylline 2.25 mg/dl calibrator
[9] = theophylline 4.5 mg/dl calibrator

**Q.** Which “% Inhibition” value [1, 6] does the source give for `Cn1c(=O)c2[nH]cnc2n(C)c1=O` [Theophylline, theophylline] here?
**A.** 5.6%

**Q.** What about the “Absorbance (402.5 nm)” value [1, 6] of the same compound?
**A.** 0.135

**Q.** What about the “% Inhibition” value [1, 7] of the same compound?
**A.** 12.6%

**Q.** And the “Absorbance (402.5 nm)” value [1, 7]?
**A.** 0.125

**Q.** What about the “% Inhibition” value [1, 8] of the same compound?
**A.** 30.1%

**Q.** What about the “Absorbance (402.5 nm)” value [1, 8] of the same compound?
**A.** 0.100

**Q.** And the “% Inhibition” value [1, 9]?
**A.** 42.0%

**Q.** What about the “Absorbance (402.5 nm)” value [1, 9] of the same compound?
**A.** 0.083

**Q.** And the “% Inhibition” value [2]?
**A.** 0%

**Q.** What about the “O.D./min. at pH 8” value [3] of the same compound?
**A.** 0.48 O.D./min.

**Q.** What about the “O.D./min. at pH 9.5” value [3] of the same compound?
**A.** 0.76 O.D./min.

**Q.** What about the “O.D./min. at pH 8” value ([4]; human ALP 1000 I.U./l) of the same compound?
**A.** 0.50 O.D./min.

**Q.** And the “O.D./min. at pH 9.5” value ([4]; human ALP 1000 I.U./l)?
**A.** 0.98 O.D./min.

**Q.** And the “% Interference by human ALP at pH 8” value ([4]; human ALP 1000 vs 0 I.U./l)?
**A.** 4%

**Q.** What about the “% Interference by human ALP at pH 9.5” value ([4]; human ALP 1000 vs 0 I.U./l) of the same compound?
**A.** 29%

**Q.** What about the “therapeutic range of use” value [5] of the same compound?
**A.** 1 to 2 mg/dL
